Source: patent publication US20260184715A1, “NOVEL PYRROLO[1,2-d][1,2,4] TRIAZINONE DERIVATIVES AS NEGATIVE ALLOSTERIC MODULATORS OF MGLU7 RECEPTORS” (Neurosterix Pharma Sarl., priority 2022, published 2026)

By UniProt entry, the sequences of proteins in these tests, tags left out. Residues count along the entry.
UniProt Q14831, 35-922 isoform 2 limits assumed: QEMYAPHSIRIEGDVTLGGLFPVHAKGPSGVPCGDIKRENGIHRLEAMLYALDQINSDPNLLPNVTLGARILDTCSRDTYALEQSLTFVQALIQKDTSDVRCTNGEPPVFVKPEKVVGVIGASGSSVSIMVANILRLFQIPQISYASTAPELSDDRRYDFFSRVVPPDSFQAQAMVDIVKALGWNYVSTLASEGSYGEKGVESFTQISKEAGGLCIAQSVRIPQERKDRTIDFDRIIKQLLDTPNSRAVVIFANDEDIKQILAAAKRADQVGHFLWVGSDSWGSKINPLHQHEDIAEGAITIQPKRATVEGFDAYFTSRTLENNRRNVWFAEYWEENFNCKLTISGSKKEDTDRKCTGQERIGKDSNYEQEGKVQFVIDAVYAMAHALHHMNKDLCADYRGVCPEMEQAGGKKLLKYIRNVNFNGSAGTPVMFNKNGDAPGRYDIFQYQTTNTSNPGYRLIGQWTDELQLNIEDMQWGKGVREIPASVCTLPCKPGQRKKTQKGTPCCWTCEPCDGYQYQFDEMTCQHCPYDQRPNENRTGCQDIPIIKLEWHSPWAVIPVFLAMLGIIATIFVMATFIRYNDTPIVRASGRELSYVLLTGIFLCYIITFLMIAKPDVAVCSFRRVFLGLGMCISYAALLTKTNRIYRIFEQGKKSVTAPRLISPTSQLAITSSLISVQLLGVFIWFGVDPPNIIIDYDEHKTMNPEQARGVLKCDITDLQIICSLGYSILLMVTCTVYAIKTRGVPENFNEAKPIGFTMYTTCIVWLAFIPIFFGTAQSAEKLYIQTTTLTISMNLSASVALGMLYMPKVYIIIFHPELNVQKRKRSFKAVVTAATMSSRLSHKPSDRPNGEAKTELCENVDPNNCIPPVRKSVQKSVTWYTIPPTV

Target: human metabotropic glutamate 7 receptor (hmGlu7) (Homo sapiens, UniProt Q14831)
Test: mGlu7 assay on HEK-expressing human mGlu7: fluorescent cell based-Ca2+ mobilization assay (FLIPR), inhibition of EC80 L-AP4 response
Settings: read-out: Ca^2+ Flux (mean IC50); HEK-293 cells expressing hmGlu7, EC80 L-AP4; mean of at least three independent experiments in duplicate
Excerpt: mGlu7 Assay on HEK-Expressing Human mGLU7
The cDNA encoding the human metabotropic glutamate 7 receptor (hmGlu7), (accession number NM_181874.2, NCBI Nucleotide database browser), was subcloned into an expression vector containing also the hygromycin resistance gene. In parallel, the cDNA encoding a G protein allowing redirection of the activation signal to intracellular calcium flux was subcloned into a different expression vector containing also the Puromycin resistance gene. Transfection of both these vectors into HEK293 cells with PolyFect reagent (Qiagen) according to supplier's protocol, and hygromycin and puromycin treatment allowed selection of antibiotic resistant cells which had integrated stably one or more copies of the plasmids. Positive cellular clones expressing hmGlu7 were identified in a functional assay measuring changes in calcium fluxes in response to glutamate and L-AP4 or known mGlu7 orthosteric antagonists.
HEK-293 cells expressing hmGlu7 were maintained in media containing DMEM, Fetal Bovine Serum (10%), GlutaMAX™ (2 mM), penicillin (100 units/mL), streptomycin (100 μg/mL), geneticin (100 μg/mL) and hygromycin-B (40 μg/mL) and puromycin (1 μg/mL) at 37° C. with 5% CO2 in a humidified atmosphere.
Human mGlu7 HEK-293 cells were plated out 24 hours prior to a fluorescent cell-based calcium mobilization assay using FLIPR^384 assay (Molecular Device, Sunnyvale, CA, USA) in black-walled, clear-bottomed, poly-L-ornithine-coated 384-well plates at a density of 25,000 cells/well in a glutamine/glutamate free DMEM medium containing fetal bovine serum (10%), penicillin (100 units/mL), streptomycin (100 μg/mL) and doxycyline (1 μg/ml) at 37° C. with 5% CO2 in a humidified atmosphere.
On the day of the assay, the medium was aspirated and the cells were loaded with a 3 μM solution of Fluo4-AM (LuBioScience, Lucerne, Switzerland) in 0.03% pluronic acid. After 1 hour at 37° C./5% CO2, the non incorporated dye was removed by washing cell plate with the assay buffer. All assays were performed in a pH 7.4 buffered-Solution containing 20 mM HEPES, 143 mM NaCl, 6 mM KCl, 1 mM MgSO4, 1 mM CaCl2, 0.125 mM sulfinpyrazone and 0.1% glucose.
After 10 s of basal fluorescence recording, various concentrations of the compounds of the invention were added to the cells. Changes in fluorescence levels were first monitored for 180 s in order to detect any agonist activity of the compounds. Then the cells were stimulated by an EC80 L-AP4 concentration for an additional 110 s in order to measure inhibiting activities of the compounds of the invention. EC80 L-AP4 concentration is the concentration giving 80% of the maximal glutamate response.
The concentration-response curves of L-AP4 or representative compounds of the present invention were generated using the Prism GraphPad software (Graph Pad Inc, San Diego, USA). The curves were fitted to a four-parameter logistic equation:
(Y=Bottom+(Top−Bottom)/(1+10^((Log IC50−X)*Hill Slope)
allowing determination of IC50 values.
The Table 3 below represents the mean IC50 obtained from at least three independent experiments of selected molecules performed in duplicate.

Structure (SMILES)	IC50 [µM]
COc1cccc(-c2c(C)c3cnn(-c4ncccn4)c(=O)n3c2C)c1	< 0.1
Cc1c(-c2cccc(OC3CC3)c2)c(C)n2c(=O)n(-c3ccc(C(C)(C)O)cn3)ncc12	0.1 to 1
Cc1ccc(OC2CC2)cc1-c1cc2cnn(-c3ncccn3)c(=O)n2c1C	< 0.1
Cc1c(-c2cccc(OC3CC3)c2F)cc2cnn(-c3ncccn3)c(=O)n12	< 0.1

Further lines, results first:

IC50 [µM]	Structure (SMILES)
0.1 to 1	Cc1c(-c2cccc(OC3CC3)c2)c(C)n2c(=O)n(-c3ncc(OC(F)F)cn3)ncc12
0.1 to 1	COc1cnc(-n2ncc3c(C)c(-c4cccc(OC5CC5)c4)c(C)n3c2=O)nc1
0.1 to 1	Cc1c(-c2cccc(OC3CC3)c2)c(C)n2c(=O)n(-c3ccc(F)cn3)ncc12
0.1 to 1	Cc1c(-c2cccc(OC3CC3)c2)c(C)n2c(=O)n(-c3ncc(OCCN(C)C)cn3)ncc12
